For one experiment, the system named is Cetuximab (Ab-1, Ab-3). The experiment can be described thus: Phagemid competition ELISA, Cetuximab pre-incubated with EGFR. It is filed as binding.
In experiment [1] the target is SP34 (Ab-9, Ab-10) binding to CD3. Kind of experiment: ELISA inhibition of equilibrium binding of antibody to cognate antigen by peptides. To be noted: Target SP34; peptide inhibition of antibody binding to CD3.
For experiment [2], the system named is SP34 (Ab-9, Ab-10). Kind of experiment: BLI kinetic binding of antibody to peptides (Octet). To be noted: Target SP34; biotinylated synthetic peptide on sensor.
For experiment [3], the target named is SP34 (Ab-9, Ab-10). Kind of experiment: ELISA equilibrium binding of antibody to peptides. To be noted: Target SP34; antibody titrated on captured peptide. A general note: An ELISA detects its analyte on a solid surface through an enzyme-linked reagent.
Experiment [4] relates to SP34 (Ab-9, Ab-10) binding to CD3. Kind of experiment: BLI inhibition of kinetic binding of antibody to cognate antigen by peptides. To be noted: Target SP34, 100 uM peptide.
Experiment [5] relates to SP34 (Ab-9, Ab-10). The experiment can be described thus: Phagemid competition ELISA, SP34 pre-incubated with CD3. It is filed as binding. To be noted: for Phage ELISA 20 nM CD3 % inhib: 20 nM CD3 pre-incubation; for Phage ELISA 200 nM CD3 % inhib: 200 nM CD3 pre-incubation.
The next experiment deals with neutravidin (Gallus gallus, UniProt P02701). Kind of experiment: Phage ELISA, phage binding to neutravidin alone (NAv bkgd). To be noted: clonal phage, ELISA signal on neutravidin alone.

Protein sequences, listed by entry. Tags and fused reporters are not part of them. Residues count along the entry.
UniProt P02701, 25-152: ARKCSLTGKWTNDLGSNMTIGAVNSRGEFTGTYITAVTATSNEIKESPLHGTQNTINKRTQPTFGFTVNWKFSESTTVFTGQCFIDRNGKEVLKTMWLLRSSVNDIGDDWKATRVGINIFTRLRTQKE

Consider `CC(C)[C@@H]1NC(=O)[C@H](Cc2c[nH]c3ccccc23)NC(=O)[C@H]([C@@H](C)O)NC(=O)[C@H](CC(N)=O)NC(=O)[C@H](CC(=O)O)NC(=O)[C@H](CCC(N)=O)NC(=O)CNC(=O)[C@@H](NC(=O)[C@H](Cc2ccc(O)cc2)NC(=O)CNC(=O)CN)CSSC[C@@H](C(=O)N[C@@H](Cc2ccccc2)C(=O)NCC(=O)NCC(=O)NCC(=O)NCC(=O)N[C@@H](CO)C(=O)NCCOCCOCCOCCOCCC(=O)N[C@@H](CCCCNC(=O)CCCC[C@@H]2SC[C@@H]3NC(=O)N[C@@H]32)C(N)=O)NC(=O)CNC(=O)[C@H](CCC(=O)O)NC(=O)[C@H](CCCNC(=N)N)NC1=O` [Peptide-6], for which, in the experiment with Cetuximab (Ab-1, Ab-3) (pre-incubation with 2 nM EGFR), the “Phage ELISA 2 nM EGFR % inhib” value was determined as 95%. The “Phage ELISA 20 nM EGFR % inhib” value in the experiment with Cetuximab (Ab-1, Ab-3) (pre-incubation with 20 nM EGFR) is listed as 95%.
On to `CC[C@H](C)[C@H](NC(=O)CNC(=O)CNC(=O)[C@@H]1CSSC[C@H](NC(=O)CNC(=O)[C@H](Cc2c[nH]c3ccccc23)NC(=O)[C@H](CC(C)C)NC(=O)[C@H](Cc2ccc(O)cc2)NC(=O)CNC(=O)[C@H](CCC(N)=O)NC(=O)CNC(=O)[C@H](CO)NC(=O)[C@H](CCC(N)=O)NC(=O)CNC(=O)[C@@H](N)CCC(N)=O)C(=O)N[C@@H](CCC(=O)O)C(=O)N[C@@H](Cc2c[nH]c3ccccc23)C(=O)N[C@@H](CC(N)=O)C(=O)N1)C(=O)N[C@H](C(=O)N[C@H](C(=O)NCC(=O)NCC(=O)NCC(=O)NCC(=O)N[C@@H](CO)C(=O)NCCOCCOCCOCCOCCC(=O)N[C@@H](CCCCNC(=O)CCCC[C@@H]1SC[C@@H]2NC(=O)N[C@@H]21)C(N)=O)[C@@H](C)O)[C@@H](C)O` [Peptide-18], for which the IC50 (as a rule, the concentration needed to halve the response being measured) in experiment [1] was determined as 4760 nM. In addition, the “Octet BLI Binds” value with SP34 (Ab-9, Ab-10) [2] was “YES”. Moreover, on SP34 (Ab-9, Ab-10) [3], the EC50 – broadly, the concentration at which the effect is half-maximal – amounted to 2.75 nM. Further, the “Octet BLI Competes at 100 uM” value in experiment [4] is on record as “YES”.
With `CC[C@H](C)[C@H](NC(=O)[C@H](CCC(=O)O)NC(=O)[C@@H]1CSSC[C@H](NC(=O)[C@@H](NC(=O)[C@H](CO)NC(=O)[C@H](CC(=O)O)NC(=O)CNC(=O)CN)C(C)C)C(=O)N[C@@H](C)C(=O)N[C@@H](CC(=O)O)C(=O)N2CCC[C@H]2C(=O)N[C@@H](CCC(=O)O)C(=O)N[C@@H](C(C)C)C(=O)N2CCC[C@H]2C(=O)N[C@@H]([C@@H](C)CC)C(=O)N1)C(=O)NCC(=O)NCC(=O)NCC(=O)NCC(=O)N[C@@H](CO)C(=O)NCCOCCOCCOCCOCCC(=O)N[C@@H](CCCCNC(=O)CCCC[C@@H]1SC[C@@H]2NC(=O)N[C@@H]21)C(N)=O` [Peptide-19], in the experiment on SP34 (Ab-9, Ab-10) [2], the “Octet BLI Binds” value is given as “YES”. In the experiment with SP34 (Ab-9, Ab-10) [5], the “Phage ELISA 20 nM CD3 % inhib” value is 92% and the “Phage ELISA 200 nM CD3 % inhib” value is reported as 94%. At SP34 (Ab-9, Ab-10) [3], this compound displayed a half-maximal effective concentration (EC50) of 8.03 nM. Also, the “Phage ELISA NAv bkgd” value on neutravidin was determined as 0.051. The “Octet BLI Competes at 100 uM” value in experiment [4] was “YES”.
Take `CC[C@H](C)[C@@H]1NC(=O)[C@H](CCC(=O)O)NC(=O)[C@H](C(C)C)NC(=O)CNC(=O)[C@@H]2CCCN2C(=O)[C@H](CC(=O)O)NC(=O)CNC(=O)[C@@H](NC(=O)[C@H](CC(=O)O)NC(=O)[C@H](CO)NC(=O)[C@H](CCSC)NC(=O)CNC(=O)CN)CSSC[C@@H](C(=O)N[C@H](C(=O)N[C@@H](Cc2c[nH]cn2)C(=O)NCC(=O)NCC(=O)NCC(=O)NCC(=O)N[C@@H](CO)C(=O)NCCOCCOCCOCCOCCC(=O)N[C@@H](CCCCNC(=O)CCCC[C@@H]2SC[C@@H]3NC(=O)N[C@@H]32)C(N)=O)[C@@H](C)O)NC1=O` [Peptide-20]: the “Octet BLI Binds” value with SP34 (Ab-9, Ab-10) [2] is listed as “YES”. Also, in the experiment on SP34 (Ab-9, Ab-10) [5], the “Phage ELISA 20 nM CD3 % inhib” value is listed as 97% and the “Phage ELISA 200 nM CD3 % inhib” value came to 98%. At SP34 (Ab-9, Ab-10) [3], this compound registered an EC50 of 7.13 nM. Besides, the “Phage ELISA NAv bkgd” value at neutravidin was 0.092. Besides, the “Octet BLI Competes at 100 uM” value in experiment [4] is “YES”.
`CC[C@H](C)[C@H](NC(=O)CNC(=O)CN)C(=O)N[C@@H](CCC(N)=O)C(=O)N[C@H]1CSSC[C@@H](C(=O)N[C@@H](Cc2ccc(O)cc2)C(=O)N[C@H](C(=O)NCC(=O)NCC(=O)NCC(=O)NCC(=O)N[C@@H](CO)C(=O)NCCOCCOCCOCCOCCC(=O)N[C@@H](CCCCNC(=O)CCCC[C@@H]2SC[C@@H]3NC(=O)N[C@@H]32)C(N)=O)[C@@H](C)CC)NC(=O)[C@@H]2CCCN2C(=O)[C@H](CO)NC(=O)[C@@H]2CCCN2C(=O)[C@H](CC(C)C)NC(=O)[C@H](CC(=O)O)NC(=O)[C@@H]2CCCN2C(=O)[C@H](CC(=O)O)NC(=O)[C@H](Cc2c[nH]cn2)NC1=O` [Peptide-21]: the “Octet BLI Binds” value in the experiment on SP34 (Ab-9, Ab-10) [2] is on record as “YES”. In the experiment on SP34 (Ab-9, Ab-10) [5], the “Phage ELISA 20 nM CD3 % inhib” value was determined as 89% and the “Phage ELISA 200 nM CD3 % inhib” value was found to be 89%. On SP34 (Ab-9, Ab-10) [3], the EC50 came out at 8.25 nM. Moreover, at neutravidin, the “Phage ELISA NAv bkgd” value was 0.052. In addition, the “Octet BLI Competes at 100 uM” value in experiment [4] is reported as “YES”.
On to `CC(C)C[C@@H]1NC(=O)[C@@H](NC(=O)[C@H](Cc2c[nH]c3ccccc23)NC(=O)[C@H](CCC(=O)O)NC(=O)CNC(=O)CN)CSSC[C@@H](C(=O)N[C@@H](CCC(N)=O)C(=O)N[C@@H](CC(=O)O)C(=O)NCC(=O)NCC(=O)NCC(=O)NCC(=O)N[C@@H](CO)C(=O)NCCOCCOCCOCCOCCC(=O)N[C@@H](CCCCNC(=O)CCCC[C@@H]2SC[C@@H]3NC(=O)N[C@@H]32)C(N)=O)NC(=O)[C@H]([C@@H](C)O)NC(=O)[C@@H]2CCCN2C(=O)[C@H](C(C)C)NC(=O)[C@H](CC(=O)O)NC(=O)[C@@H]2CCCN2C(=O)[C@H](CC(=O)O)NC(=O)[C@H](Cc2ccccc2)NC1=O` [Peptide-22], for which the concentration for half-maximal inhibition (IC50) in experiment [1] turned out to be 1810 nM. For the same compound, the “Octet BLI Binds” value with SP34 (Ab-9, Ab-10) [2] was “YES”. Moreover, in the experiment with SP34 (Ab-9, Ab-10) [5], the “Phage ELISA 20 nM CD3 % inhib” value is 87% and the “Phage ELISA 200 nM CD3 % inhib” value is recorded as 93%. On SP34 (Ab-9, Ab-10) [3], the half-maximal effective concentration (EC50) amounted to 2.56 nM. Besides, the “Phage ELISA NAv bkgd” value on neutravidin turned out to be 0.051. Further, the “Octet BLI Competes at 100 uM” value in experiment [4] is on record as “YES”.
Consider `CC[C@H](C)[C@@H]1NC(=O)[C@H](CC(=O)O)NC(=O)[C@H](CC(N)=O)NC(=O)[C@@H](NC(=O)CNC(=O)[C@H](CC(C)C)NC(=O)CNC(=O)CN)CSSC[C@@H](C(=O)N[C@H](C(=O)N[C@H](C(=O)NCC(=O)NCC(=O)NCC(=O)NCC(=O)N[C@@H](CO)C(=O)NCCOCCOCCOCCOCCC(=O)N[C@@H](CCCCNC(=O)CCCC[C@@H]2SC[C@@H]3NC(=O)N[C@@H]32)C(N)=O)C(C)C)[C@@H](C)CC)NC(=O)[C@H](CCC(N)=O)NC(=O)[C@H](CCC(=O)O)NC(=O)CNC(=O)[C@@H]2CCCN2C(=O)[C@H](CC(=O)O)NC1=O` [Peptide-23], for which the “Octet BLI Binds” value in the experiment with SP34 (Ab-9, Ab-10) [2] is reported as “YES”. Further, in the experiment on SP34 (Ab-9, Ab-10) [5], the “Phage ELISA 20 nM CD3 % inhib” value is listed as 85% and the “Phage ELISA 200 nM CD3 % inhib” value is listed as 85%. The compound also showed an EC50 at SP34 (Ab-9, Ab-10) [3] of 8.2 nM. Moreover, the “Phage ELISA NAv bkgd” value on neutravidin is reported as 0.055. In experiment [4], the “Octet BLI Competes at 100 uM” value is on record as “YES”.
As to `CC[C@H](C)[C@@H]1NC(=O)[C@H](CC(=O)O)NC(=O)[C@H](CCC(N)=O)NC(=O)[C@@H]2CCCN2C(=O)[C@H](CCC(=O)O)NC(=O)[C@H](Cc2c[nH]c3ccccc23)NC(=O)[C@H](CC(=O)O)NC(=O)[C@H](CC(N)=O)NC(=O)[C@H]([C@@H](C)CC)NC(=O)[C@@H]2CCCN2C(=O)[C@@H](NC(=O)[C@H](CC(C)C)NC(=O)CNC(=O)CN)CSSC[C@@H](C(=O)N[C@@H](Cc2c[nH]c3ccccc23)C(=O)NCC(=O)NCC(=O)NCC(=O)NCC(=O)N[C@@H](CO)C(=O)NCCOCCOCCOCCOCCC(=O)N[C@@H](CCCCNC(=O)CCCC[C@@H]2SC[C@@H]3NC(=O)N[C@@H]32)C(N)=O)NC1=O` [Peptide-27], the “Octet BLI Binds” value in the experiment on SP34 (Ab-9, Ab-10) [2] is recorded as “YES”. Further, in the experiment with SP34 (Ab-9, Ab-10) [5], the “Phage ELISA 20 nM CD3 % inhib” value was determined as 94% and the “Phage ELISA 200 nM CD3 % inhib” value came out at 95%. The EC50 on SP34 (Ab-9, Ab-10) [3] was 7.62 nM. Also, the “Phage ELISA NAv bkgd” value on neutravidin is 0.062. Besides, the “Octet BLI Competes at 100 uM” value in experiment [4] was “YES”.

Values taken from patent US20240376226A1, “COMPOSITIONS AND METHODS RELATING TO TUMOR ACTIVATED T CELL ENGAGERS” (Janux Therapeutics, Inc., priority 2019, published 2024).
